# Yeast mating assay 2: variants of the scFv Ab-91

Target peptide (SARS-CoV-2 spike, HR2 region): PDVDLGDISGINAS

Parent scFv Ab-91: VL joined to VH by a 15-residue (Gly4Ser)3 linker. Changes lie in the heavy chain CDRs alone.
VL: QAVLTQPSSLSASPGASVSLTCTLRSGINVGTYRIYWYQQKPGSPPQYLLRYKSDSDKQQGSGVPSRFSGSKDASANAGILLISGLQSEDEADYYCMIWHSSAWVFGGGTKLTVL
VH: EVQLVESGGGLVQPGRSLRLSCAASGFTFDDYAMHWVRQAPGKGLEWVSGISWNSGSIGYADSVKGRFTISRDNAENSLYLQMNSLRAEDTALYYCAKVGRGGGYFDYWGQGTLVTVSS

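Phage display of a naive human antibody library on the peptide gave the parent. The library (AAYL51) carries one to three amino acid substitutions per variant, with no insertions or deletions. AlphaSeq pools MATa yeast showing the antibodies with MATalpha yeast showing the peptide. Pairs that bind mate more often; barcode pairs of the diploids are counted by sequencing. A regression on co-assayed BCL2-family reference pairs converts the normalised counts of each replicate to an apparent Kd. Mating was done three times.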

Each variant is given by its three heavy chain CDRs, as the data file delimits them; those of the parent are GFTFDDYAMH, GISWNSGSIGYADSVK, VGRGGGYFDY.
Affinities are written as log10 Kd with Kd in nM; a lower number is a better binder.
A mean of the replicates is given; it leaves out those without a signal.
"no signal" means that the variant was in the library but no mating with the target was seen in any replicate; the authors take this as a sign of poor binding, and no number exists.
Parent in this assay: reference entry 1.86, copy in this library 0.88.
Nonspecific signal, from three strains lacking the peptide, appeared in 21% of pairings of library AAYL51, centred on 4.54 (5% of these signals below 3.26); values are not corrected for it.

| mean, log10 nM | seen in | CDR-H1 | CDR-H2 | CDR-H3 |
|---|---|---|---|---|
| no signal | 0 of 3 | GFTFDDVAMH | LISWNSQSIGYADSVK | VGRGGGYFDY |
| no signal | 0 of 3 | GFTFWDYAMH | GISWNAGSIGYADSVP | VGRGGGYFDY |
| 5.43 | 2 of 3 | GFTFDDYAMH | GISWNSGSIGYADSVK | PSRGGGYFDY |
| no signal | 0 of 3 | GFTFDDYAMH | GLSWNSGSLGYADSVC | VGRGGGYFDY |
| no signal | 0 of 3 | GFTFDDYASH | GHSWNSGSIGYADSVK | VGRGGGYFDY |
| no signal | 0 of 3 | GFTFLDYAMH | GISENIGSIGYADSVK | VGRGGGYFDY |
| 4.08 | 1 of 3 | GFTFDTYAMH | GIMWNSGSIGYADSVK | VGRYGGYFDY |
| 5.30 | 3 of 3 | GFTFDDYAMH | GISWNSGYIGYADSVK | VGRGWGYFDY |
| no signal | 0 of 3 | GFTFDKYAMH | GISWNSGSIGYHDSVK | VGEGGGYFDY |
| no signal | 0 of 3 | GFTFDDYADH | LISWNSGSGGYADSVK | VGRGGGYFDY |
| 4.61 | 3 of 3 | GFTFYDYAMH | GCSWNSGSIGYAPSVK | VGRGGGYFDY |
| no signal | 0 of 3 | NFTFGDYAMH | EISWNSGSIGYADSVK | VGRGGGYFDY |
| 3.54 | 1 of 3 | DFTFDDYAMH | GISWNSSSIGYADSVK | VPRGGGYFDY |
| 3.57 | 1 of 3 | GFTFDDYAEH | GISWNSGSIGFADSVK | VGRGGGYFDY |
| no signal | 0 of 3 | GFTFDDYAMG | GITWNSGSIGYADSVK | VGRGGGYFDY |
| no signal | 0 of 3 | GFTFDDYAMH | GISWNSGSNGYADSVK | VGRGGGYFDC |
| 4.37 | 1 of 3 | GFTFDDYAMA | GISWNSGSIGYADSIF | VGRGGGYFDY |
| 2.49 | 3 of 3 | GFTFDDYAMH | GISWNSGYIGYADEVK | VGKGGGYFDY |
| 4.78 | 2 of 3 | GFTFDMYAMH | GISWNSGSIGYADLDK | VGRGGGYFDY |
| no signal | 0 of 3 | GFTFDDYAMH | GGSWNSGSIGNADSVK | VGRGDGYFDY |
| 4.54 | 3 of 3 | GFTFDDYAMH | GISWNSGSIGYADSVA | VGRSGGMFDY |
| no signal | 0 of 3 | GFTFDDSAMH | GISWNSGSIGIADSVK | VGRGGGYLDY |
| 1.37 | 3 of 3 | FFTFDDYAMH | GISWMSGSIGYADSVK | VGRGGGYFDA |
| 2.97 | 2 of 3 | GFTFDDYAMH | GISWISGSIGRADSVK | VGRGGTYFDY |
| 5.29 | 2 of 3 | GFTFDDYAMH | GISWNSGSDGYADSYK | VGRGGGYFDY |
| 5.83 | 1 of 3 | GFTFDDYAMH | GISTHSGSIGYADSVK | VGRGWGYFDY |
| 0.89 | 3 of 3 | GFTFDHYAMH | GISYNVGSIGYADSVK | VGRGGGYFDY |
| 4.68 | 2 of 3 | GFTFDDYAMH | GNSWNSGSHGYADSVK | VGRGGGYFDY |
| 4.87 | 3 of 3 | DFTFDDYAMH | GISWNSGSIGYADSVK | VGRGGLMFDY |
| 4.02 | 2 of 3 | GFTFYDYAMH | GISWNSGSTGYADSVT | VGRGGGYFDY |
| 4.51 | 1 of 3 | GFTFDHYAMR | GISWNSGSILYADSVK | VGRGGGYFDY |
| 1.92 | 3 of 3 | GFTFDDYAMH | GISWNSGSIGYADSFK | VGRGGGPFDY |
| no signal | 0 of 3 | GFTFVDYAMH | GISWNSGSQGYADSNK | VGRGGGYFDY |
| 3.70 | 3 of 3 | GFTFDDVAMH | GIALNSGSIGYADSVK | VGRGGGYFDY |
| 4.98 | 1 of 3 | GFTFDDYAMH | GISWNKGSCGTADSVK | VGRGGGYFDY |
| 4.33 | 1 of 3 | GFTFDDYAMH | GISWNSGCIGYADSVK | VGRGGGCIDY |
| no signal | 0 of 3 | GFRFDDYAMG | GISWNSGSIGYWDSVK | VGRGGGYFDY |
| no signal | 0 of 3 | GFTFDDYAMH | GISWNSGSIGYADLVK | YVRGGGYFDY |
| 4.27 | 3 of 3 | GFTFCDYAVH | GISWNSGSIGYADYVK | VGRGGGYFDY |
| no signal | 0 of 3 | GFTFWDYAMH | GISWNSGSIGYVDSVK | VGRHGGYFDY |
| 1.33 | 3 of 3 | GFTFDGYAMH | GISWNSGSIGYADSFK | VCRGGGYFDY |
| 4.31 | 2 of 3 | GDTFDDYAMH | GISWNSGSIGYADDVK | VGREGGYFDY |
| 3.50 | 1 of 3 | GFTFDDYAMH | GIPWNSGSIGYADHVK | VGRGGAYFDY |
| no signal | 0 of 3 | GYTFDDYAMH | GIEWNSGSIGYADSVK | VGRGGGYFDY |
| no signal | 0 of 3 | GFTFDDYTMH | GHSWNSGWIGYADSVK | VGRGGGYFDY |
| 4.28 | 2 of 3 | GFTFIDYAMM | GISWNSGIIGYADSVK | VGRGGGYFDY |
| 3.02 | 3 of 3 | GFTFDDYAMH | GISWNSGTIGYRDDVK | VGRGGGYFDY |
| no signal | 0 of 3 | GFTFFDYAMP | GISWNSGSIGYADSVK | VGRFGGYFDY |
| no signal | 0 of 3 | GFTFDDYAMH | MISWNSGSIMYADSVK | VGRGGGDFDY |
| no signal | 0 of 3 | GFTLDDYANH | GRSWNSGSIGYADSVK | VGRGGGYFDY |
| no signal | 0 of 3 | GFTFDDYAMH | GILWQSGSIGYEDSVK | VGRGGGYFDY |
| no signal | 0 of 3 | GFTFDDYEMH | GISWNFGSIGYADSVK | VGRGGGYFDY |

For reference, 3 entries of the list once more:

{"CDR-H1": "GFTFDDSAMH", "CDR-H2": "GISWNSGSIGIADSVK", "CDR-H3": "VGRGGGYLDY", "mean, log10 nM": "no signal", "seen in": "0 of 3"}
{"CDR-H1": "NFTFGDYAMH", "CDR-H2": "EISWNSGSIGYADSVK", "CDR-H3": "VGRGGGYFDY", "mean, log10 nM": "no signal", "seen in": "0 of 3"}
{"CDR-H1": "GFTFDDYAMH", "CDR-H2": "GISWNSGSIGYADLVK", "CDR-H3": "YVRGGGYFDY", "mean, log10 nM": "no signal", "seen in": "0 of 3"}

From the AlphaSeq antibody data of Engelhart et al. 2022 (doi:10.1038/s41597-022-01779-4), copy in the FLAb collection.